Data on two compounds can be found in US10226478B2, “Dosage regimen for sapacitabine and decitabine in combination for treating acute myeloid leukemia” (Cyclacel Limited, priority 2011, dated 2019).

In the assay the test system is HL60 cells. Nature of the assay: Cell cycle analysis (propidium iodide, flow cytometry). Type of assay: cell-based. Conditions: for cells in sub-G1: by 72 hours, azacitidine 128 nM (24 h pretreatment), CNDAC 133 nM. The method, then: For combination analysis, cells were treated with azacitidine for 24 hours followed by a further 48 or 72 hours with azacitidine and CNDAC. For controls, single agent treatments for each drug were also performed. At the end of the incubation, cells were harvested by washing twice in PBS and fixation in 70% ethanol and storage at −20° C. Prior to analysis cells were washed twice in PBS containing 1% BSA followed by staining with propidium iodide (50 μg/ml) and ribonuclease A (50 μg/ml) in PBS containing 0.1% Triton X-100 and the cell cycle profile was determined by flow cytometry.

Turning to `N#C[C@H]1[C@H](O)[C@@H](CO)O[C@H]1n1ccc(N)nc1=O` [CNDAC, 1-(2-C-Cyano-2-deoxy-β-D-arabino-pentafuranosyl)-cytosine], the “cells in sub-G1” value was 7%. Besides, the “cell cycle profile” value (by 48 hours of CNDAC 133 nM) is “accumulation of cells in G2/M”.

On to `Nc1ncn([C@@H]2O[C@H](CO)[C@@H](O)[C@H]2O)c(=O)n1` [azacitidine, 4-amino-1-β-D-ribofuranosyl-s-triazin-2(1H)-one], for which the “cells in sub-G1” value was 9%. Further, the “cell cycle profile” value (azacitidine 128 nM alone, 72 and 96 hours exposure) is “accumulation of cells in sub-G1, G2/M, and >G2/M”.
